For the test, the target named is T1, Fructose-1,6-bisphosphatase 1 (Sus scrofa, UniProt P00636).
T1 sequence (P00636 whole entry): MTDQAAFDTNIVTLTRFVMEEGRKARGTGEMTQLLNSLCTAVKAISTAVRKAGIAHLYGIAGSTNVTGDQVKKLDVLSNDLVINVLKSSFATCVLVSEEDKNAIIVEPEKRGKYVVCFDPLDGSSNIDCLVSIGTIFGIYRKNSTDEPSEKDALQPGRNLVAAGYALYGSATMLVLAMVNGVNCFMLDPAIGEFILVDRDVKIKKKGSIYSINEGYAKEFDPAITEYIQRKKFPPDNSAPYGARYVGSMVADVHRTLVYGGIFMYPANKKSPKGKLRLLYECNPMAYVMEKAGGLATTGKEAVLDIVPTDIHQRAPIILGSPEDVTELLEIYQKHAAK
Kind of test: Inhibition of pig kidney fructose-1,6-bisphosphatase expressed in Escherichia coli BL21 (DE3) assessed as reduction of NADP+ to NADPH by phosphoglucose isomerase/glucose-6-phosphate dehydrogenase coupled assay.

IC50 data for 1 molecule are collected here from ChEMBL document CHEMBL1157047, “Designing inhibitors against fructose 1,6-bisphosphatase: exploring natural products for novel inhibitor scaffolds” (Eur J Med Chem, 2010).

Structures are written as SMILES. pIC50: −log10 of the molar value.

One may read the pIC50 as the IC50 on a negative log10 scale, so that one unit is a factor of ten. `CC(=O)C1=C(O)C=C2Oc3c(C(C)=O)c(O)c(C)c(O)c3[C@@]2(C)C1=O` [(+)-USNIC ACID]: the negative logarithm of the IC50 (pIC50) was 3.03.
